According to patent US7431914B2, “Contrast agent” (GE Healthcare AS, priority 2003, dated 2008):

Biological target: T1, AT1 receptor (Homo sapiens, UniProt P30556)
T1 construct: expressed in transfected cells; host or cells: CHO cells (membranes)
Assay: Ki determination, competition binding assay for AT1 with 125I-Sar1-Ile8-Angiotensin II
Conditions: competition with 125I-Sar1-Ile8-Angiotensin II; membranes from CHO cells expressing the AT1 receptor; Cheng-Prussoff

Losartan-Leu-Diglycoloyl-PEG(4)-Diglycolyl-cPn216 [Example 1]
Ki: 0.5 nM
